Compound activity: PubChem BioAssay, National Center for Advancing Translational Sciences (NCATS)
ASM inhibitor = Inhibitors of Secretory Acid Sphingomyelinase (S-ASM): qHTS; AID 504937, 2011; Potency, µM (series often up to 57.5 µM), most hits filed as inhibitors; Sphingomyelin phosphodiesterase (Homo sapiens), P17405; hit rate 0.006% among 340,000; placental ASM, HMU-PC fluorogenic substrate, 60 min; active means well fitted inhibition curve with a large enough effect; inconclusive means small, poorly fitted or top-dose-only effect; inactive means no such curve, though single readings can be large or run the other way
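qHTS format. ASM enzyme prepared from human placenta hydrolyses the fluorogenic substrate HMU-PC0 (9 uM final) over 60 min at 37 °C after a 10 min compound preincubation.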
gsp antagonist = qHTS for Antagonists of gsp, the Etiologic Mutation Responsible for Fibrous Dysplasia/McCune-Albright Syndrome: qHTS; gsp-mutant cells, cAMP HTRF, 30 min; Potency, µM (top dose mostly 76.9 µM), hits mostly inhibitors; hit rate 0.4% among 340,000; AID 624288, 2012; calls by dose curve; cell line not stated here;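 further: intracellular cAMP measured with PDE inhibitor Ro 20-1724 present during compound exposure; nearly all actives have a fitted effect of over 65% in size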
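G418-selected cells were plated in DMEM/10% FBS for 16-24 h at 37C, then treated with compounds plus the PDE inhibitor […] (300 uM solution added) for 30 min at 37C. Intracellular cAMP was measured by HTRF after 30 min lysis at room temperature.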
Rango-impB inh = qHTS Assay for Inhibitors of Rango (Ran-regulated importin-beta cargo) - Importin beta complex formation; Importin subunit beta-1 (Homo sapiens), Q14974; Potency, µM (doses to about 92.2 µM); hit rate 0.031% among 340,000; Rango CFP/YFP FRET sensor + importin beta, 45 min; AID 540263, 2011; further: nearly all actives have a fitted effect of over 15% in size
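Inhibition scored from the CFP 486 nm/YFP 530 nm FRET ratio 45 min after adding 0.125 microM importin beta to 50 nM Rango biosensor preincubated 5 min with compound (room temperature, PBS with DTT, Tween-20, BSA). No-importin wells as positive control.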
gsp ag = qHTS for Agonist of gsp, the Etiologic Mutation Responsible for Fibrous Dysplasia/McCune-Albright Syndrome: qHTS; hit rate 0.13% among 340,000; gsp mutant cells, cAMP HTRF, 30 min; Potency, µM (highest dose often 76.9 µM), most hits filed as activators; active means well fitted activation curve with a large enough effect; inconclusive means small, poorly fitted or top-dose-only effect, or another doubt; inactive means no such curve, though single readings can be large or run the other way; cell line not stated here;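 further: phosphodiesterase inhibitor Ro 20-1724 added with compounds to block cAMP breakdown; nearly all actives have a fitted effect of over 60% in size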
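Cells stably selected in G418 were plated at 2000/well, grown 16-24 hr, then given compounds in DMSO with the PDE inhibitor […] (300 uM solution added) for 30 min at 37C; cAMP was read by HTRF.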
Rango release inh = qHTS Assay for Inhibitors of RanGTP induced Rango (Ran-regulated importin-beta cargo) - Importin beta complex dissociation | Potency, µM (highest dose often 46.1 µM) | Snurportin-1 (Homo sapiens) + GTP-binding nuclear protein Ran (Homo sapiens) + Importin … | Biochemical FRET Rango-importin beta, RanGTP-induced dissociation | AID 540253, 2011 | hit rate 0.071% among 340,000; further: nearly all actives have a fitted effect of over 45% in size
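Quantitative HTS using a FRET biosensor: 0.1 uM Rango, 0.25 uM importin beta, 0.6 uM Ran, 2 mM GTP, 0.2 uM RCC1 final, PBS with DTT, Tween-20 and BSA. Post-read taken 45 min after Ran addition.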
Large screens that a line does not name were inactive. Only some compounds are listed: those with a hit (about 0.67% of all), similar ones and a draw of the others. Unless noted, the call rests on the fitted dose curve.

Amino acid sequences for entries named in this document (tags omitted).
Importin subunit beta-1 (Homo sapiens), Q14974, UniProt Q14974, whole entry, looked up: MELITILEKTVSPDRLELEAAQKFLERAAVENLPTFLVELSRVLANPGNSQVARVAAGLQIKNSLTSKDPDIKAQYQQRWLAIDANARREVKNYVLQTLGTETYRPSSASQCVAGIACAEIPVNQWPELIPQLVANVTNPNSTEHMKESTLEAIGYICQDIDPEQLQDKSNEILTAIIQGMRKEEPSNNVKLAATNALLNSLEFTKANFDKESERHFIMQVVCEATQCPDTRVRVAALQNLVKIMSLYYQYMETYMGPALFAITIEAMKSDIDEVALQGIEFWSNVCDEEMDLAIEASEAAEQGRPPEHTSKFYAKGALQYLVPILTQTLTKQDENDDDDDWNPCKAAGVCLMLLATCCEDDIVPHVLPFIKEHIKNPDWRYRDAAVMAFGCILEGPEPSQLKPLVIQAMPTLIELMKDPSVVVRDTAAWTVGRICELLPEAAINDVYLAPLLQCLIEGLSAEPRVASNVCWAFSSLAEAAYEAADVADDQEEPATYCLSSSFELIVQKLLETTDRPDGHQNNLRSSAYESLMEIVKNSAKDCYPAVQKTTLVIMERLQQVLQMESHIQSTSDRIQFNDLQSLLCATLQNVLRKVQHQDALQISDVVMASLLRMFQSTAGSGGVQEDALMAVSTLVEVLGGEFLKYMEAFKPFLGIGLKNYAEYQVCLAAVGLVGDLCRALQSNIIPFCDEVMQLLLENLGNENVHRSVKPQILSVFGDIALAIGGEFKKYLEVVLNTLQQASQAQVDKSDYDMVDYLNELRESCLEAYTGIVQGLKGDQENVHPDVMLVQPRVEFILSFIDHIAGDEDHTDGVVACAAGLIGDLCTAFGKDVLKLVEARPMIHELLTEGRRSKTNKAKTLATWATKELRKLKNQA

COc1ccc(CN2C(=O)c3cccnc3C2=O)cc1S(=O)(=O)N1CCCCC1C (stereo not drawn)	gsp ag 7.1µM
CCOc1ccc(CNS(=O)(=O)c2cc(CN3C(=O)c4cccnc4C3=O)ccc2OC)cc1	gsp ag inconclusive
O=C(Nc1ncccn1)c1ccc(Cl)c([N+](=O)[O-])c1	none
COc1ccc(C(=O)c2sc3nc(C)cc(-c4cccs4)c3c2N)cc1OC	Rango-impB inh inconclusive, gsp ag inconclusive, Rango release inh inconclusive
COc1ccc(C(=O)c2sc3nc(C)cc(-c4cccs4)c3c2N)cc1	Rango-impB inh inconclusive, gsp ag 10µM, Rango release inh inconclusive
Cc1cc(=O)n2nc(N3CCCC3C(=O)Nc3ccccc3C)sc2n1 (stereo not drawn)	Rango-impB inh inconclusive, gsp ag 13µM
Cc1cc(=O)n2nc(N3CCCC3C(=O)Nc3cccc(F)c3)sc2n1 (stereo not drawn)	gsp ag inconclusive, Rango release inh inconclusive
Cc1ccc(S(=O)(=O)N2CCOCC2)cc1NC(=O)COC(=O)CNC(=O)c1ccccc1	none
Cc1ccc(S(=O)(=O)N2CCOCC2)cc1NC(=O)COc1ccc(C(=O)c2ccccc2)cc1	gsp antagonist 25µM, gsp ag 7.9µM, Rango release inh inconclusive
COC(=O)c1ccc(/C=C2/SC(=S)N(CCC(=O)N3CCOCC3)C2=O)cc1	gsp antagonist 50µM
COCCNC(=O)CN1C(=O)/C(=C/c2ccccc2)Oc2ccc(C(C)(C)C)cc21	gsp antagonist 28µM
CC(=O)c1nc(N2C(=O)CC(Cc3ccccc3)C2=O)sc1C (stereo not drawn)	gsp ag 16µM
CC(=O)n1cc([C@H]2C=C(C(=O)N3CCN(Cc4ccccc4)CC3)O[C@@H](OCCCCO)C2)c2ccccc21	gsp antagonist 35µM, Rango-impB inh inconclusive (no result: gsp ag)
CC(=O)n1cc([C@@H]2C=C(C(=O)N3CCN(Cc4ccc5c(c4)OCO5)CC3)O[C@H](OCCCCO)C2)c2ccccc21	none (no result: gsp ag)
O=C(N/N=C/c1cccc(Br)c1)c1ccc(Cn2cc(Br)cn2)o1	gsp antagonist 35µM
Cc1ccsc1/C=N/NC(=O)c1ccc(Cn2cc(Br)cn2)o1	none
COc1ccc(C(=O)/C=C/Nc2ccc(S(=O)(=O)Nc3onc(C)c3C)cc2)cc1	gsp antagonist inconclusive, Rango-impB inh inconclusive, Rango release inh inconclusive
CCOC(=O)COc1cc(OCC(=O)OCC)c2c3c(c(=O)oc2c1)CCCC3	gsp antagonist inconclusive, gsp ag 11µM
COc1ccc(CC(=O)Nc2sc3c(c2C(N)=O)CCCC3)cc1OC	none
COc1cccc(CC(=O)Nc2sc3c(c2C(N)=O)CCCC3)c1	gsp ag 35µM
COCCNC(=O)c1cn(C)c2ccc(S(=O)(=O)N(C)C3CCCCC3)cc2c1=O	gsp antagonist 11µM
COC(CNC(=O)c1cn(C)c2ccc(S(=O)(=O)N(C)C3CCCCC3)cc2c1=O)OC	none
CCCCC(CC)CO (stereo not drawn)	none (no result: gsp ag)
CCCCC(CC)CN=C(N)NC(N)=NCCCCCCN=C(N)NC(N)=NCC(CC)CCCC (stereo not drawn)	ASM inhibitor inconclusive, gsp antagonist inconclusive, Rango-impB inh 58µM, Rango release inh inconclusive (no result: gsp ag)
CC(=O)c1c(C)[nH]c(C(=O)OCc2csc(CC(=O)Nc3ccccc3C)n2)c1C	gsp antagonist 25µM, gsp ag inconclusive
COc1ccc(C2=NS(=O)(=O)N(C)C(C(=O)Nc3ccc(C(C)=O)cc3)=C2)cc1OC	gsp antagonist 32µM, Rango-impB inh inconclusive
CCOC(=O)/C(=C/c1ccccc1)NC(=O)c1ccco1	none
CC1CCCCC1Nc1nc2ccc(Cl)cc2n2cnnc12 (stereo not drawn)	gsp ag inconclusive
CC(=O)c1cc2c(C)c(C(=O)c3ccccc3)oc2cc1O	Rango-impB inh 6.5µM, Rango release inh inconclusive
CN(C)c1ccc(/C(=N\O)C(F)(F)F)cc1	gsp antagonist 40µM
CC(=O)c1ccc(N(C)C)cc1	none
Cc1cc(C)c2nc(Cl)c(Cl)nc2c1	none
CC1=C/C(=C(/c2cc(C)c(O)c(Br)c2)c2ccccc2S(=O)(=O)O)C=C(Br)C1=O	gsp antagonist 20µM, Rango-impB inh inconclusive
CN1/C(=C\C(=O)c2ccco2)C(C)(C)c2ccccc21	gsp antagonist 35µM, Rango-impB inh inconclusive, Rango release inh inconclusive
COc1ccccc1OCC(=O)/C=C1/N(C)c2ccccc2C1(C)C	none
CN1/C(=C\C(=O)COc2ccc3c(c2)OCO3)C(C)(C)c2ccccc21	gsp antagonist 40µM
CC1=C(C(=O)OCC2CCCO2)C(c2coc3ccccc3c2=O)C2=C(CCCC2=O)N1 (stereo not drawn)	gsp ag inconclusive
CCCCNc1c(-c2ccc(OC)c(SC3CCCCC3)c2)nc2ccc(C)cn12	gsp antagonist 32µM, Rango-impB inh inconclusive, gsp ag inconclusive, Rango release inh inconclusive
CCCCCCSc1cc(-c2nc3ccc(C)cn3c2NCCCC)ccc1OC	Rango-impB inh inconclusive (no result: gsp ag)
CCCCNc1c(-c2ccc(SC3CCCCC3)c(OC)c2)nc2ccc(C)cn12	Rango-impB inh inconclusive, Rango release inh 7.3µM (no result: gsp ag)
COc1ccc(-c2nc3ccc(C)cn3c2NCc2ccccc2)cc1SC1CCCCC1	gsp antagonist 35µM, Rango-impB inh inconclusive, Rango release inh inconclusive (no result: gsp ag)
COC(=O)c1c(-c2ccco2)csc1NC(=O)C1CC=CCC1C(=O)O (stereo not drawn)	gsp ag 32µM
CCN(CC)c1nc2ccccc2nc1-n1nc(C)cc1C	Rango-impB inh inconclusive, gsp ag inconclusive, Rango release inh 15µM
Cc1cc(C)n(-c2nc3ccccc3n3cnnc23)n1	none
COC(=O)[C@H](CC(C)C)N(Cc1ccccc1)S(=O)(=O)N(Cc1ccccc1)[C@@H](CC(C)C)C(=O)OC	none (no result: gsp ag)
COC(=O)[C@H](CC(C)C)N(Cc1ccccc1)S(=O)(=O)N(Cc1ccc(OC)cc1)[C@@H](CC(C)C)C(=O)OC	gsp antagonist 50µM (no result: gsp ag)
Cc1ccc(-n2c(C)cc(C(=O)CSc3nncs3)c2C)cc1	gsp antagonist 25µM
CCC(=O)c1c[nH]c(C(=O)NCc2cccnc2)c1	none
O=C(NCc1cccnc1)c1cc(C(=O)C2CC2)c[nH]1	gsp antagonist 11µM, Rango-impB inh inconclusive
CCOC(=O)N1CCN(C(=O)CCl)CC1	none
COc1cccc(C2C(C(=O)c3cccs3)=C(O)C(=O)N2CCN2CCOCC2)c1 (stereo not drawn)	none
COCCN1C(=O)C(O)=C(C(=O)c2cccs2)C1c1ccccc1 (stereo not drawn)	gsp ag 3.5µM
